Test [1] addresses T1, beta-catenin/TCF4 engagement (Homo sapiens, UniProt P35222).
T1 construct: expressed in transfected cells; host or cells: HEK293
The test is described as follows: Nano-BRET target engagement assay (B-cat-Halo & TCF4-Luc in HEK293 cells). It is filed as cell-based. On the technique in general: In BRET a luciferase serves as donor, and the signal depends on an acceptor being close.

By UniProt entry, the sequences of proteins in these tests, tags left out.
UniProt P35222, whole entry: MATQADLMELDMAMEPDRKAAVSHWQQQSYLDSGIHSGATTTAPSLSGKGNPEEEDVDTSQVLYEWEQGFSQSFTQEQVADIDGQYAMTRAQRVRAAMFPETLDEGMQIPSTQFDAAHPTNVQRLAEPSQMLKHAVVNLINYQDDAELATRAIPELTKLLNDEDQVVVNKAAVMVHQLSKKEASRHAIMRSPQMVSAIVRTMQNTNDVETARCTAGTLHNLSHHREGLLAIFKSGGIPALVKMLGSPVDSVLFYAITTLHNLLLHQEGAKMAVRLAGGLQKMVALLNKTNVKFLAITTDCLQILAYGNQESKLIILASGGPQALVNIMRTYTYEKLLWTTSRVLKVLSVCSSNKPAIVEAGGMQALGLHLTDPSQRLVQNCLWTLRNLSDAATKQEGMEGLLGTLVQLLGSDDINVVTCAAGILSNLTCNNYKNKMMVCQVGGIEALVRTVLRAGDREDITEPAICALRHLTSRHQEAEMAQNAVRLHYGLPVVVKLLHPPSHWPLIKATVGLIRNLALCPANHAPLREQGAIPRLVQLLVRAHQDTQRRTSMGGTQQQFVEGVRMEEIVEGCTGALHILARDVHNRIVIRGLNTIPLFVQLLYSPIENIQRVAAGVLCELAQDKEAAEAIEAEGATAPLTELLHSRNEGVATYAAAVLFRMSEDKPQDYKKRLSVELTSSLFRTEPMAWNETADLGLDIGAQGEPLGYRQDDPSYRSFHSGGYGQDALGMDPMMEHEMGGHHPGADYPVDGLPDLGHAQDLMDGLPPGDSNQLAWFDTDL

In test [2] the target is T2, full-length beta-Catenin (Uniprot ID P35222) (Homo sapiens, UniProt P35222).
T2 construct: 10 nM full-length beta-Catenin (Uniprot ID P35222)
Kind of test: Fluorescence polarization IC50 (beta-catenin / 5FAM-TCF4 10-53 competition). It is filed as binding. To be noted: beta-Catenin FP IC50 (nM). (Fluorescence polarisation rises when a labelled molecule tumbles more slowly, as on binding a larger partner.)

The values below come from patent US20240116985A1, “STAPLED PEPTIDES AND METHODS THEREOF” (priority 2020, published 2024).

As a reminder, the IC50 is the point on the concentration scale where inhibition reaches its midpoint. A higher IC50 goes with weaker potency. For the compound `CC(=O)N1CCC[C@]12CC=CCCCC1(CCCC=CCCCOC(=O)N3CC[C@@](C(=O)N[C@@H](Cc4ccccc4C(F)(F)F)C(=O)N[C@@H](Cc4csc5ccccc45)C(=O)N[C@@H](CCC(N)=O)C(N)=O)(C3)NC(=O)[C@H](CC(C)C)NC(=O)[C@H](Cc3ccccc3)NC(=O)[C@H](C)NC(=O)[C@H](C)NC(=O)[C@H](Cc3cccc(C(=O)O)c3)NC(=O)[C@H](CC(=O)O)NC1=O)NC(=O)[C@H](CC(C)(C)C)NC(=O)[C@H](CC(=O)O)NC2=O` (stereo partly drawn) [I-1466, Ac-PL3-Asp-Npg-B5-Asp-3COOHF-Ala-Ala-Phe-Leu-PyrS2-2F3MeF-BztA-Gln-NH2], half-maximal inhibition in test [1] (NanoBRET Abs IC50, absolute IC50) (IC50) was put at 2.2 µM.
On to `CC(=O)N1CCC[C@]12CC=CCCCC1(CCCC=CCCCOC(=O)N3CC[C@@](C(=O)N[C@@H](Cc4ccccc4C(F)(F)F)C(=O)N[C@@H](Cc4csc5ccccc45)C(=O)N[C@H](CCC(N)=O)C(N)=O)(C3)NC(=O)[C@H](CC(C)C)NC(=O)[C@H](Cc3ccccc3)NC(=O)[C@H](C)NC(=O)[C@H](C)NC(=O)[C@H](Cc3cccc(C(=O)O)c3)NC(=O)[C@H](CC(=O)O)NC1=O)NC(=O)[C@H](CC(C)(C)C)NC(=O)[C@H](CC(=O)O)NC2=O` (stereo partly drawn) [I-2089, Ac-PL3-Asp-Npg-B5-Asp-3COOHF-Ala-Ala-Phe-Leu-PyrS2-2F3MeF-BztA-dGln-NH2], for which the IC50 in test [1] (NanoBRET Abs IC50 (uM)) was 2.9 µM; in test [2] it was 28 nM.
